Results taken from publication PMC5760633, “Determining direct binders of the Androgen Receptor using a high-throughput Cellular Thermal Shift Assay” (Scientific Reports, 2018).

By UniProt entry, the sequences of proteins in these tests, tags left out.
UniProt P10275, whole entry H875Y: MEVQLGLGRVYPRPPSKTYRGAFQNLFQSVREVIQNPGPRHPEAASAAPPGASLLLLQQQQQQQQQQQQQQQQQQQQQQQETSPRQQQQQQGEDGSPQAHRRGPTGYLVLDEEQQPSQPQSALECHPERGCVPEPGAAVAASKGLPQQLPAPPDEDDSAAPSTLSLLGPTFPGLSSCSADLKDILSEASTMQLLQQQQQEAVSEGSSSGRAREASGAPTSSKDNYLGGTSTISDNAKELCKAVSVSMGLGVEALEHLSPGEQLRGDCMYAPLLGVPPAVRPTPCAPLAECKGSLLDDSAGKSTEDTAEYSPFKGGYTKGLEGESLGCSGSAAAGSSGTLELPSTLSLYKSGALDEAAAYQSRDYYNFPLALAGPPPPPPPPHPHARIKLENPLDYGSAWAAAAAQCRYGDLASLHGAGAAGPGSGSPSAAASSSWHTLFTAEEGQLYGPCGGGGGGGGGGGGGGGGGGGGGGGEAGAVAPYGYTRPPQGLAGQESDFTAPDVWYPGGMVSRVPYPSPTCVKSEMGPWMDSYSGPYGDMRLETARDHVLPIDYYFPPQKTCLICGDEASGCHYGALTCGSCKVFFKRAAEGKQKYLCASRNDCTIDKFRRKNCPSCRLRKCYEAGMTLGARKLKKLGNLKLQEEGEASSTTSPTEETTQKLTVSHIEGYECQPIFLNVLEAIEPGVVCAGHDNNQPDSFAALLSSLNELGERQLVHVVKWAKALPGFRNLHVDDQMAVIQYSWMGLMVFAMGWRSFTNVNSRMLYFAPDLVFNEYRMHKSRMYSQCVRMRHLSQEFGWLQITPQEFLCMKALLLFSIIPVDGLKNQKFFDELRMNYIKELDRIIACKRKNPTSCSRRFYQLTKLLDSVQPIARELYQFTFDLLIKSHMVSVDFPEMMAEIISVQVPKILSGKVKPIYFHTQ

Tests used:
Androgen Receptor (AR) = Androgen Receptor (AR) (Homo sapiens, UniProt P10275, H875Y); assay: CETSA HT ITDRF at 46 °C, antagonist mode in the presence of 1 nM DHT, CWR22Pc-R1-AD1 cells; assay type: binding; conditions: for Conclusion: activity in CETSA HT: Supplementary Table S1, 2 h, 46 °C; for IC50: read-out: AR target engagement (CETSA HT), 2 h, IC50, CWR22Pc-R1-AD1 cells, 1 nM DHT, 46 °C heat shock
total cellular AR = assay: CETSA HT control without heat shock and without exogenous DHT (total AR); assay type: cell-based, human; conditions: 2 h compound incubation, no 46 °C heat shock

Row | Compound | Conclusion: activity in CETSA HT (Androgen Receptor (AR)) | IC50 (Androgen Receptor (AR)) | effect on total AR (no heat shock) (total cellular AR)
1 | COc1ccc(C=CC(=O)CC(=O)C=Cc2ccc(OC)c(OC)c2)cc1OC | Inactive | > 30 µM | do not reduce total AR
2 | O=C(O)c1ccc(CN2CCC(CN[C@@H]3C[C@H]3c3ccccc3)CC2)cc1 [GSK2879522] | Inactive | > 30 µM | 
3 | CC[C@H](C)n1cc(C)c2c(C(=O)NCc3c(C)cc(C)[nH]c3=O)cc(-c3ccc(N4CCNCC4)nc3)cc21 [GSK-126] | Inactive | > 30 µM | 
4 | Cc1sc2c(c1C)C(c1ccc(Cl)cc1)=N[C@@H](CC(=O)OC(C)(C)C)c1nnc(C)n1-2 [JQ1] | Inactive | > 30 µM | do not reduce total AR
5 | N#Cc1cc2cc(CN3CCC(Nc4ncnc5sc(CC(F)(F)F)cc45)CC3)ccc2[nH]1 [MI-136] | Inactive | > 30 µM | 
6 | Cc1c(CN2CCC(Nc3ncnc4sc(CC(F)(F)F)cc34)CC2)ccc2c1cc(C#N)n2Cc1cn[nH]c1 [MI-503] | Inactive | > 30 µM | do not reduce total AR
